Our source for the HC50 values is patent publication US20060024264A1, “Antimicrobial copolymers and uses thereof” (priority 2004, published 2006).

Each structure is given as a SMILES string.

In the data set the test system is human red blood cells (RBCs). Kind of data set: Hemolysis assays (HC50). Type of data set: cell-based. The settings on record: polymer concentration at 50% hemolysis; 37° C., 1 hour, TBS buffer. Here is the method:
Assays for measuring the cytotoxic selectivity for copolymers of the present invention toward bacteria and eukaryotic cells are well known to those of skill in the art. For example, cytotoxic selectivity can be assessed by determining the hemolytic activity of the copolymers. Hemolytic activity assays are performed by measuring the degree of hemolysis of human erythrocytes following incubation in the presence of the copolymer and determining HC50 values. HC50 values represent the concentration of compound that results in 50% hemoglobin release. See, for example, Kuroda, K, and DeGrado, W. F., J. Amer. Chem. Soc. 127:4128-4129 (2005) and Liu, D., and DeGrado, W. F., J. Amer. Chem. Soc. 123:7553-7559 (2001), and references cited therein. See also Javadpour, M. M., et al., J. Med. Chem. 39:3107-3113 (1996).
Hemolysis Assays: Polymer stock solutions and control solutions were prepared by the same procedure as in antimicrobial testing. Freshly drawn human red blood cells (RBCs) were obtained by centrifuging a whole blood and removing plasma and white blood cells. […] Supernatant (30 μL) was diluted with TBS buffer (100 μL), and OD414 of the solution was measured as hemoglobin concentration. […] Percentage of hemolysis (P) was calculated from the equation: P=[OD414(polymer)−OD414(control)]/[OD414(melittin)−OD414(control)] […]

The HC50 is the concentration that lyses half of the red blood cells. A higher HC50 goes with weaker haemolysis. As to `CC[C@H](C)[C@H](NC(=O)CN)C(=O)NCC(=O)N[C@@H](C)C(=O)N[C@H](C(=O)N[C@@H](CC(C)C)C(=O)N[C@@H](CCCCN)C(=O)N[C@H](C(=O)N[C@@H](CC(C)C)C(=O)N[C@H](C(=O)N[C@H](C(=O)NCC(=O)N[C@@H](CC(C)C)C(=O)N1CCC[C@H]1C(=O)N[C@@H](C)C(=O)N[C@@H](CC(C)C)C(=O)N[C@H](C(=O)N[C@@H](CO)C(=O)N[C@@H](Cc1c[nH]c2ccccc12)C(=O)N[C@H](C(=O)N[C@@H](CCCCN)C(=O)N[C@@H](CCCNC(=N)N)C(=O)N[C@@H](CCCCN)C(=O)N[C@@H](CCCNC(=N)N)C(=O)N[C@@H](CCC(N)=O)C(=O)N[C@@H](CCC(N)=O)C(N)=O)[C@@H](C)CC)[C@@H](C)CC)[C@@H](C)O)[C@@H](C)O)C(C)C)C(C)C` [melittin], the HC50 is 1.24 µg/mL.
